# Test results from article PMC5290327, “SC83288 is a clinical development candidate for the treatment of severe malaria” (Nature Communications, 2017).
# System: Dd2 trophozoites
# Assay: In vitro speed of action, clearance of trophozoites (Vial protocol)
# Type: cell-based, Plasmodium falciparum
# Settings: compared with SC compounds
# Experimental: To assess how quickly the two compounds were able to kill the parasite, we exposed highly synchronized trophozoites (24–30 h post invasion; 0.5% parasitemia) of Dd2 to different drug concentrations ranging from 0.1 to 10 μM (ref. [7]). Aliquots were withdrawn at different time points (from 0 to 6 h) after the addition of the drug and analysed for cell viability by [^3H] hypoxanthine incorporation. Parasite clearance depended on both drug concentration and exposure time (Fig. 4a). For instance, SC83288 cleared a 0.5% parasitemia at a concentration of 500 nM within an exposure time of 3±1 h (n=4).
# The second approach followed the protocol described by Vial et al.[7]. Briefly, highly synchronized trophozoite-stage parasites (24–26 h post invasion; 0.5% parasitemia, 2% haemtocrit) were treated with 100, 500, 1, 5 and 10 μM of artemisinin, SC81458 and SC83288 for up to 6 h (0 h, 10 min, 30 min, 1 h, 2 h, 3 h, 4 h, 5 h and 6 h), before the drugs were washed out and cells returned to culture. At time point 10 h post invasion of the following cycle, [^3H]-hypoxanthine was added for 24 h to monitor parasite viability. The clearance time was determined for each treatment condition and was expressed as a function of the drug concentration.
structure (smiles),measurement,value
C[C@@H]1CC[C@H]2[C@@H](C)C(=O)O[C@@H]3O[C@@]4(C)CC[C@@H]1[C@]32OO4 [Artemisinin],killing efficacy for trophozoites,slower killing efficacy
